Results published in article PMC12010937, “Evaluation of FXR Activity in Pollutants Identified in Sewage Sludge and Subsequent in Vitro and in Vivo Characterization of Metabolic Effects of Triphenyl Phosphate” (Environmental Health Perspectives, 2025).

Biological target: T1, FXR (pCDNA3.1-hFXR, FXRE-luc) (Homo sapiens, UniProt Q96RI1)
T1 construct: host or cells: HEK 293T
T1 sequence (Q96RI1 1-486): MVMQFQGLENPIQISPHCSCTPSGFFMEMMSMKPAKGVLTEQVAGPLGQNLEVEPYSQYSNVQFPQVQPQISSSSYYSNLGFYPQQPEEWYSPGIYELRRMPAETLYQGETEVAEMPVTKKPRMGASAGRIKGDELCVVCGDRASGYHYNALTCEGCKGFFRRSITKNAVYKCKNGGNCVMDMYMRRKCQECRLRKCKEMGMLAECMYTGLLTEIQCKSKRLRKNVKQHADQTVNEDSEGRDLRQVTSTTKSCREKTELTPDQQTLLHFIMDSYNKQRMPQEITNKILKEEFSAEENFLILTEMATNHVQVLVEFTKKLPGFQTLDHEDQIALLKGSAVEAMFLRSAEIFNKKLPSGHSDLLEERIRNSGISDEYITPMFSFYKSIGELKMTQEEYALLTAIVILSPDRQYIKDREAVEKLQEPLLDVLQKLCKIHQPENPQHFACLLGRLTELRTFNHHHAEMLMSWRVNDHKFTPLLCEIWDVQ
Format: cell-based
Conditions: HEK 293T DLR assay

- Rate of FXR inhibition at the maximum exposure concentration: 76.75%
SMILES: C/C=C1\C(=O)C[C@H]2[C@@H]3CCC4=CC(=O)CC[C@]4(C)[C@H]3CC[C@]12C [GS, guggulsterone]
